Experimental data published in patent US9296708B2, “Chimeric small molecules for the recruitment of antibodies to cancer cells” (YALE UNIVERSITY, priority 2008, dated 2016).

Tested on: PSMA-expressing LNCaP cells
Assay: Antibody recruitment flow cytometry
Settings: competitor added together with 3 and anti-DNP antibodies

`NCCCC[C@@H](C(=O)O)N(c1ccc([N+](=O)[O-])cc1[N+](=O)[O-])c1ccc([N+](=O)[O-])cc1[N+](=O)[O-]` was tested, and the “effect of competitor on 3-mediated antibody recruitment (fluorescence)” value was “decrease in fluorescence”.
